Measured values reported in US20240174727A1, “LONG-ACTING NATRIURETIC PEPTIDES AND USES THEREOF” (Eli Lilly and Company, priority 2022, published 2024).

Tests used:
rat NPRA = biological target: T1, rat NPRA (Rattus norvegicus, UniProt P18910); assay: Rat NPRA cGMP activity assay (HTRF) in HEK293 cells overexpressing NPRA; type: cell-based; conditions: cGMP Assay (EC50, pM) w/Casein rNPRA, assay buffer with 0.1% casein
T1 construct: Full-Length cDNA Cloning and Generation of Cell Lines Overexpressing Natriuretic Peptide Receptors (NPRs); expressed in transfected cells; host or cells: Jump-in T-Rex HEK293 cells, pJTI R4 CMV-TO MCS pA vector, tetracycline induction
T1 sequence (P18910 29-1057): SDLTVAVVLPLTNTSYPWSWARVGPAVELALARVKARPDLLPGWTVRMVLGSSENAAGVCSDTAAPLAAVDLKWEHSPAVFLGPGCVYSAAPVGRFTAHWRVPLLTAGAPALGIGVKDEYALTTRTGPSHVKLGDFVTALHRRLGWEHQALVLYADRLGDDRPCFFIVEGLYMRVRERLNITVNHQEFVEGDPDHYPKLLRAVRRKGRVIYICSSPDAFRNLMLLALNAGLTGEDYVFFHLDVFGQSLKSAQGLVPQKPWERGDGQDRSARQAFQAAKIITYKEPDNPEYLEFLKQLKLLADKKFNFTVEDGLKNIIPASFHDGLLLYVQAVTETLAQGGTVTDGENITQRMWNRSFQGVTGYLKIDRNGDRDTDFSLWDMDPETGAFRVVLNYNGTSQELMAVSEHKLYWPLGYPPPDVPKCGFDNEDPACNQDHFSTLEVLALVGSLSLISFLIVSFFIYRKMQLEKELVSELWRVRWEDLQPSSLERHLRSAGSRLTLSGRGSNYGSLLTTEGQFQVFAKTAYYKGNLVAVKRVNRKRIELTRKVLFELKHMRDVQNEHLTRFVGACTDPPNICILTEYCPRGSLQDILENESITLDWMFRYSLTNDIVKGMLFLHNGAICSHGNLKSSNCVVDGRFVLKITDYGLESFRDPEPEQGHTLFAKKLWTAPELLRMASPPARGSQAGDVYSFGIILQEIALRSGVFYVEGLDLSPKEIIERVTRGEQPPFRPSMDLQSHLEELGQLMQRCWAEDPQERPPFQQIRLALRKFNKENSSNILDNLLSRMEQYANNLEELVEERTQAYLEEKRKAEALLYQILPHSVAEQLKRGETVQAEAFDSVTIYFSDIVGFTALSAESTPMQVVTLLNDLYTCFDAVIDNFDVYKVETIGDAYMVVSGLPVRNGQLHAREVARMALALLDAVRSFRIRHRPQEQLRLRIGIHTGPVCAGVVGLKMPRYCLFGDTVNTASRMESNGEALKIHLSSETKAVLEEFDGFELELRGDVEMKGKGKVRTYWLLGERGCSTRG
Method in brief: (§1)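 Tetracycline-induced (300 ng/mL, 48 h) T-Rex HEK293 cells expressing NPRA, 4000 cells/well, treated 40 min at room temperature with polypeptide (8 points, 10 μM to 1 pM) in HBSS/HEPES buffer with 0.5 mM IBMX, pH 7.4. cGMP by HTRF, normalised to 100 nM amidated rat ANP and buffer.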

[1] = Pharmacokinetics in male Sprague Dawley rats; type: in vivo; conditions: rat, sc, mean, single subcutaneous administration of 200 nMol/kg, plasma; for half-life: read-out: t½ (converted)
Description: The pharmacokinetics of the exemplary analogs are evaluated following a single subcutaneous administration of […] to male Sprague Dawley rats. Blood samples are collected over 120 hours, and resulting individual plasma concentrations are used to calculate pharmacokinetic parameters. Peptide plasma (K3 EDTA) concentrations are determined using a qualified LC/MS method that measured the intact mass of the ANP polypeptide. Each peptide and an analog as an internal standard are extracted from 100% specie specified plasma using methanol with 0.1% formic acid. A Thermo Q-Exactive, High Resolution Instrument, and a Thermo Easy Spray PepMap are combined for LC/MS detection.

human NPRA = biological target: T2, human NPRA (Homo sapiens, UniProt P16066); assay: Human NPRA cGMP activity assay (HTRF) in HEK293 cells overexpressing NPRA; type: cell-based; conditions: cGMP Assay (EC50, pM) w/Casein hNPRA, assay buffer with 0.1% casein
T2 construct: Full-Length cDNA Cloning and Generation of Cell Lines Overexpressing Natriuretic Peptide Receptors (NPRs); expressed in transfected cells; host or cells: Jump-in T-Rex HEK293 cells, pJTI R4 CMV-TO MCS pA vector, tetracycline induction
T2 sequence (P16066 33-1061): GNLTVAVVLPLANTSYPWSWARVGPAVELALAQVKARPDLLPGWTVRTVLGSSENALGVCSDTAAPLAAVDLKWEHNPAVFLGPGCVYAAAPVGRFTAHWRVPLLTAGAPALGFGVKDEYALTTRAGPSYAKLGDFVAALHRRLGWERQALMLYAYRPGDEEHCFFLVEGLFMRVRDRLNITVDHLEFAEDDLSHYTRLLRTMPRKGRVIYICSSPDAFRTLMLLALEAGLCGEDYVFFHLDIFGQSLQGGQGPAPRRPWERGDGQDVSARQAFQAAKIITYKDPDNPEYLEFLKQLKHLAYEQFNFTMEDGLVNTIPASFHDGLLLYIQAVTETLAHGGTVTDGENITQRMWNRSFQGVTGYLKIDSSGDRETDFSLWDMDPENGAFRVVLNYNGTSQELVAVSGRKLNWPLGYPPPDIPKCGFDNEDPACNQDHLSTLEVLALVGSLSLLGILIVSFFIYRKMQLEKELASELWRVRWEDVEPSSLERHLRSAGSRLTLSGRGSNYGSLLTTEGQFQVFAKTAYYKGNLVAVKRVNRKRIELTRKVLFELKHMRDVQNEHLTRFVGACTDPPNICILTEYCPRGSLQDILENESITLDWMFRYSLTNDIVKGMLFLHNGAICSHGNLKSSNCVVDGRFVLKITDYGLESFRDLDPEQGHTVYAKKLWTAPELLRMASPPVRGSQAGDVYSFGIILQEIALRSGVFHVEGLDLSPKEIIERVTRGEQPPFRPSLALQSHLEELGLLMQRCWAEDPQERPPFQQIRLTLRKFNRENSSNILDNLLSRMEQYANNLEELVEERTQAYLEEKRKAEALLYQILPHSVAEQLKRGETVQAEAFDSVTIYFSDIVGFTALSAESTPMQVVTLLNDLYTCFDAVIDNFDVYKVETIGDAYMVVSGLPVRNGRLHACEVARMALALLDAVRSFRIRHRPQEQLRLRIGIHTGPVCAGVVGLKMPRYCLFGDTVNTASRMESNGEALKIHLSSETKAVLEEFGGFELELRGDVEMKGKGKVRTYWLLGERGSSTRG
Method in brief: as §1

SMILES	EC50 (rat NPRA) [pM]	CL/F [1] [mL/min/kg]	half-life [1] [h]	EC50 (human NPRA) [pM]
CC[C@H](C)[C@@H]1NC(=O)[C@H](CCCNC(=N)N)NC(=O)[C@H](CC(=O)O)NC(=O)[C@H]([C@@H](C)CC)NC(=O)[C@H](CCCCN)NC(=O)CNC(=O)CNC(=O)[C@H](Cc2ccccc2)NC(=O)[C@@H](NC(=O)[C@H](CO)NC(=O)[C@H](CO)NC(=O)[C@H](CCCNC(=N)N)NC(=O)[C@H](CCCCN)NC(=O)[C@H](Cc2ccncc2)NC(=O)[C@H](CO)NC(=O)CNC(=O)[C@H](CCCCN)NC(=O)[C@H](CCC(=O)O)NC(=O)[C@H](CCCCN)NC(=O)[C@H](CCC(=O)O)NC(=O)[C@H](CCCCN)NC(=O)[C@H](CCC(=O)O)NC(=O)CC[C@H](NC(=O)CCCCCCCCCCCCCCCCCCC(=O)O)C(=O)O)CSSC[C@@H](C(=O)N2CCC[C@H]2C(=O)N[C@@H](CO)C(=O)N[C@@H](Cc2ccccc2)C(=O)N[C@@H](CCCNC(=N)N)C(=O)N[C@@H](Cc2c[nH]cn2)C(=O)NCC(=O)NCC(=O)N2CCC[C@H]2C(=O)N[C@@H](CO)C(=O)N[C@@H](CO)C(=O)NCC(=O)N[C@@H](C)C(=O)N2CCC[C@H]2C(=O)N2CCC[C@H]2C(=O)N2CCC[C@H]2C(=O)N[C@@H](CO)C(N)=O)NC(=O)CNC(=O)[C@H](CC(C)C)NC(=O)CNC(=O)[C@H](CO)NC(=O)[C@H](CCC(N)=O)NC(=O)[C@H](Cc2c[nH]cn2)NC(=O)CNC1=O [Example 30]	1130	0.21	16	–
CC[C@H](C)[C@@H]1NC(=O)[C@H](CCCNC(=N)N)NC(=O)[C@H](CC(=O)O)NC(=O)[C@H]([C@@H](C)CC)NC(=O)[C@H](CCCNC(=N)N)NC(=O)CNC(=O)CNC(=O)[C@H](Cc2ccccc2)NC(=O)[C@@H](NC(=O)[C@H](CO)NC(=O)[C@H](CO)NC(=O)[C@H](CCCNC(=N)N)NC(=O)CCNC(=O)[C@H](CCCCN)NC(=O)[C@H](CCC(=O)O)NC(=O)CCOCCOCCOCCOCCOCCOCCOCCOCCOCCOCCOCCOCCOCCOCCOCCOCCOCCOCCOCCOCCOCCOCCOCCOCCNC(=O)CNC(=O)[C@H](CCCCN)NC(=O)[C@H](CCC(=O)O)NC(=O)[C@H](CCCCN)NC(=O)[C@H](CCC(=O)O)NC(=O)[C@H](CCCCN)NC(=O)[C@H](CCC(=O)O)NC(=O)CC[C@H](NC(=O)CCCCCCCCCCCCCCCCCCC(=O)O)C(=O)O)CSCSC[C@@H](C(=O)N2CCC[C@H]2C(=O)N[C@@H](CO)C(=O)N[C@@H](Cc2ccccc2)C(=O)N[C@@H](CCCNC(=N)N)C(=O)N[C@@H](Cc2c[nH]cn2)C(=O)NCC(=O)NCC(=O)N2CCC[C@H]2C(=O)N[C@@H](CO)C(=O)N[C@@H](CO)C(=O)NCC(=O)N[C@@H](C)C(=O)N2CCC[C@H]2C(=O)N2CCC[C@H]2C(=O)N2CCC[C@H]2C(=O)N[C@@H](CO)C(N)=O)NC(=O)CNC(=O)[C@H](CC(C)C)NC(=O)CNC(=O)[C@H](CO)NC(=O)[C@H](Cc2ccc(O)cc2)NC(=O)[C@H](Cc2c[nH]cn2)NC(=O)CNC1=O [Example 62]	–	0.395	10	–
CC[C@H](C)[C@@H]1NC(=O)[C@H](CCCNC(=N)N)NC(=O)[C@H](CC(=O)O)NC(=O)[C@H]([C@@H](C)CC)NC(=O)[C@H](CCCNC(=N)N)NC(=O)CNC(=O)CNC(=O)[C@H](Cc2ccccc2)NC(=O)[C@@H](NC(=O)[C@H](CO)NC(=O)[C@H](CO)NC(=O)[C@H](CCCNC(=N)N)NC(=O)CCNC(=O)[C@H](CCCCN)NC(=O)[C@H](CCC(=O)O)NC(=O)COCCOCCNC(=O)COCCOCCNC(=O)COCCOCCNC(=O)COCCOCCNC(=O)COCCOCCNC(=O)COCCOCCNC(=O)CNC(=O)[C@H](CCCCN)NC(=O)[C@H](CCC(=O)O)NC(=O)[C@H](CCCCN)NC(=O)[C@H](CCC(=O)O)NC(=O)[C@H](CCCCN)NC(=O)[C@H](CCC(=O)O)NC(=O)CC[C@H](NC(=O)CCCCCCCCCCCCCCCCCCC(=O)O)C(=O)O)CSCSC[C@@H](C(=O)N2CCC[C@H]2C(=O)N[C@@H](CO)C(=O)N[C@@H](Cc2ccccc2)C(=O)N[C@@H](CCCNC(=N)N)C(=O)N[C@@H](Cc2c[nH]cn2)C(=O)NCC(=O)N[C@@H](CO)C(=O)N2CCC[C@H]2C(=O)N[C@@H](CO)C(=O)N[C@@H](CO)C(=O)NCC(=O)N[C@@H](C)C(=O)N2CCC[C@H]2C(=O)N2CCC[C@H]2C(=O)N2CCC[C@H]2C(=O)N[C@@H](CO)C(N)=O)NC(=O)CNC(=O)[C@H](CC(C)C)NC(=O)CNC(=O)[C@H](CO)NC(=O)[C@H](Cc2ccc(O)cc2)NC(=O)[C@H](Cc2c[nH]cn2)NC(=O)CNC1=O [Example 98]	17900	–	–	1840
CC[C@H](C)[C@@H]1NC(=O)[C@H](CCCNC(=N)N)NC(=O)[C@H](CC(=O)O)NC(=O)[C@H]([C@@H](C)CC)NC(=O)[C@H](CCCNC(=N)N)NC(=O)[C@H](CCCCN)NC(=O)CNC(=O)[C@H](Cc2ccccc2)NC(=O)[C@@H](NC(=O)[C@H](CO)NC(=O)[C@H](CO)NC(=O)[C@H](CCCNC(=N)N)NC(=O)CCNC(=O)[C@H](CCCCN)NC(=O)[C@H](CCC(=O)O)NC(=O)COCCOCCNC(=O)COCCOCCNC(=O)COCCOCCNC(=O)COCCOCCNC(=O)COCCOCCNC(=O)COCCOCCNC(=O)COCCOCCNC(=O)COCCOCCNC(=O)CNC(=O)[C@H](CCCCN)NC(=O)[C@H](CCC(=O)O)NC(=O)[C@H](CCCCN)NC(=O)[C@H](CCC(=O)O)NC(=O)[C@H](CCCCN)NC(=O)[C@H](CCC(=O)O)NC(=O)CC[C@H](NC(=O)CCCCCCCCCCCCCCCCCCC(=O)O)C(=O)O)CSCSC[C@@H](C(=O)N2CCC[C@H]2C(=O)N[C@@H](CO)C(=O)N[C@@H](Cc2ccccc2)C(=O)N[C@@H](CCCNC(=N)N)C(=O)N[C@@H](Cc2c[nH]cn2)C(=O)NCC(=O)N[C@@H](CO)C(=O)N2CCC[C@H]2C(=O)N[C@@H](CO)C(=O)N[C@@H](CO)C(=O)NCC(=O)N[C@@H](C)C(=O)N2CCC[C@H]2C(=O)N2CCC[C@H]2C(=O)N2CCC[C@H]2C(=O)N[C@@H](CO)C(N)=O)NC(=O)CNC(=O)[C@H](CC(C)C)NC(=O)CNC(=O)[C@H](CO)NC(=O)[C@H](Cc2ccc(O)cc2)NC(=O)[C@H](Cc2c[nH]cn2)NC(=O)CNC1=O [Example 108]	11200	–	–	497
